Columns and labels:
[1] = Maximum tolerated dose / regimen in tumor-bearing mice; format: in vivo, nude mice; settings: HCTVM46 study FIG. 13; single agents, q4d×3
[2] = test system: HCT-116 human colon carcinoma cells; test: Clonogenic cell colony-formation assay, stationary vs log phase cells; settings: IC90 Log / IC90 Stationary, HCT116

N#Cc1ccc2c(c1)CN(S(=O)(=O)c1cccs1)[C@H](Cc1ccccc1)CN2Cc1cnc[nH]1 showed a maximum tolerated regimen [1] of 400 mg/kg.

For N#Cc1ccc2c(c1)CN(S(=O)(=O)c1cccs1)[C@H](Cc1ccccc1)CN2Cc1c[nH]cn1, the “Non-proliferative cells selectivity ratio (fold)” value [2] was 44.2 fold.

From patent publication US6537988B2, “Synergistic methods and compositions for treating cancer” (Bristol-Myers Squibb Company, priority 2000, dated 2003)
